Measured values: PMC2258317

Key:
Experiment in all cases: pull-down; small scale: GST fusions (1 μM) on glutathione cellulose, or calmodulin sepharose (1 μM); recombinant calcineurin 1 μM; KCl 50 mM, HEPES 20 mM pH 7.4, EGTA 5 mM, NTA 5 mM, 1 μM free Ca2+ (in Fig. 3b also without added CaCl2); 2 h at 4 °C; anti-calcineurin western blot, densitometry
GST-CaBP1 = GST-CaBP1 (UniProt Q9NZU7)
GST-Hippocalcin = GST-Hippocalcin (UniProt P84074)
GST-NCS-1 = GST-NCS-1 (UniProt P62166)
GST-NCS-1^E120Q = GST-NCS-1^E120Q (UniProt P62166)
GST-Neurocalcin-δ = GST-Neurocalcin-δ (UniProt P61601)

Question: What does the source list for “Purified recombinant calcineurin (complex)”?
Answer: fold less calcineurin bound than by calmodulin (GST-CaBP1): 7 fold; fold less calcineurin bound than by calmodulin (GST-Hippocalcin): 7 fold; fold increase in binding with 1 μM free Ca2+ against without Ca2+ (GST-NCS-1): 13.7 fold; fold less calcineurin bound than by calmodulin (GST-NCS-1): 7 fold; fold increase in binding with 1 μM free Ca2+ against without Ca2+ (GST-NCS-1^E120Q): 2.2 fold; fold less calcineurin bound than by calmodulin (GST-Neurocalcin-δ): 7 fold
